This assay has as its system MKN45 gastric cancer cell line. The assay can be described thus: Assay of inhibitory effect on cell proliferation (CellTiter-Glo). Conditions: read-out: MKN45 cell IC50, three days incubation. For orientation: ATP-based viability assays read luminescence as a measure of living cells.

On to `O=C(Nc1ccc(Oc2ccnc(NC(=O)N3CCC(O)CC3)c2)c(F)c1)c1cn(CC2CC2)c(=O)n(-c2ccc(F)cc2)c1=O`, for which the IC50 – broadly, the point on the concentration scale where inhibition reaches its midpoint – was found to be 12.6 nM.

The values above are taken from US11623923B2, “Uracil compound as c-MET/AXL inhibitor” (MEDSHINE DISCOVERY, INC., priority 2017, dated 2023).
